Reference: PMC6326798

B1: GFP-hsCENP-H WT [human] / MYC-hsCENP-I [human] (parent)
chain 1: MSPQKRVKNVQAQNRTSQGSSSFQTTLSAWKVKQDPSNSKNISKHGQNNPVGDYEHADDQAEEDALQMAVGYFEKGPIKASQNKDKTLEKHLKTVENVAWKNGLASEEIDILLNIALSGKFGNAVNTRILKCMIPATVISEDSVVKAVSWLCVGKCSGSTKVLFYRWLVAMFDFIDRKEQINLLYGFFFASLQDDALCPYVCHLLYLLTKKENVKPFRVRKLLDLQAKMGMQPHLQALLSLYKFFAPALISVSLPVRKKIYFKNSENLWKTALLAVKQRNRGPSPEPLKLMLGPANVRPLKRKWNSLSVIPVLNSSSYTKECGKKEMSLSDCLNRSGSFPLEQLQSFPQLLQNIHCLELPSQMGSVLNNSLLLHYINCVRDEPVLLRFYYWLSQTLQEECIWYKVNNYEHGKEFTNFLDTIIRAECFLQEGFYSCEAFLYKSLPLWDGLCCRSQFLQLVSWIPFSSFSEVKPLLFDHLAQLFFTSTIYFKCSVLQSLKELLQNWLLWLSMDIHMKPVTNSPLETTLGGSMNSVSKLIHYVGWLSTTAMRLESNNTFLLHFILDFYEKVCDIYINYNLPLVVLFPPGIFYSALLSLDTSILNQLCFIMHRYRKNLTAAKKNELVQKTKSEFNFSSKTYQEFNHYLTSMVGCLWTSKPFGKGIYIDPEILEKTGVAEYKNSLNVVHHPSFLSYAVSFLLQESPEERTVNVSSIRGKKWSWYLDYLFSQGLQGLKLFIRSSVHHSSIPRAEGINCNNQY
chain 2: MEEQPQMQDADEPADSGGEGRAGGPPQVAGAQAACSEDRMTLLLRLRAQTKQQLLEYKSMVDASEEKTPEQIMQEKQIEAKIEDLENEIEEVKVAFEIKKLALDRMRLSTALKKNLEKISRQSSVLMDNMKHLLELNKLIMKSQQESWDLEEKLLDIRKKRLQLKQASESKLLEIQTEKNKQKIDLDSMENSERIKIIRQNLQMEIKITTVIQHVFQNLILGSKVNWAEDPALKEIVLQLEKNVDMM

Variants of: B1
Experiment: co-immunoprecipitation (anti-GFP IP, western blot quantification)
Details: with MYC-hsCENP-I [human]; HeLa Tet-On cells co-transfected with GFP-hsCENP-H, non-tagged hsCENP-K and MYC-hsCENP-I; parent: 1; read off a plot

Variant	ratio to parent
chain 2 MEEQPQMQDADEPADSGGEGRAGGPPQVAGAQAACSEDRMTLLLRLRAQTKQQLLEYKSMVDASEEKTPEQIMQEKQIEAKIEDLENEIEEVKVAFEIKKLALDRMRLSTALKKNLEKISRQSSVLMDNMKHLLELNKLIMKSQQESWDLEEKLLDIRKKRLQLKQASESKLLEIQTEKNKQKIDLDSMENSERIKIIRQNLQMEIKITTVIQHVFQNAILGSKVNWAEDPAAKEIVLQLEKNVDMM [chain 2 L219A L233A]	0.52
chain 2 MEEQPQMQDADEPADSGGEGRAGGPPQVAGAQAACSEDRMTLLLRLRAQTKQQLLEYKSMVDASEEKTPEQIMQEKQIEAKIEDLENEIEEVKVAFEIKKLALDRMRLSTALKKNLEKISRQSSVLMDNMKHLLELNKLIMKSQQESWDLEEKLLDIRKKRLQLKQASESKLLEIQTEKNKQKIDLDSMENSERIKIIRQNLQMEIKITTVIQHVFQNLILGSKVNWAEDPALEEIVAQLEKNVDMM [chain 2 K234E L238A]	0.66
